{"source": "patent US5496810A", "about": "“Pyrimidine deoxyribonucleoside potentiation of combination therapy based on 5-fluorouracil and interferon” (Montefiore Medical Center, priority 1994, dated 1996)", "key": {"[1]": {"test_system": "HT-29 human carcinoma cells", "conditions": "for Cloning Efficiency (% of control): 72 hours", "description": "HT-29 human carcinoma cells (ATCC No. HTB-38) were maintained in RPMI 1640 with 10%v/v fetal bovine serum (GIBCO) in a humidified, 5% CO2 atmosphere at 37° C. Cells were plated in 24 well plates (150 cells per well) in RPMI 1640 medium with 10% v/v dialyzed fetal bovine serum. […] The various agents were diluted in phosphate-buffered saline (PBS), and control wells received vehicle alone. After 72 hours, drug containing medium was removed and replaced with RPMI 1640 with 10%v/v fetal bovine serum. Cell colonies were allowed to grow for an additional 7-10 days, at which point they were stained and counted. […] Data are means of at least 3 determinations. The IC50 values for 5-fluorouracil were calculated graphically by determining the concentration of 5-fluorouracil that reduced cloning efficiency by 50% from the cloning efficiency value measured in the absence of 5-fluorouracil."}, "[2]": {"conditions": "background statement; cited from earlier work"}, "[3]": {"test_system": "advanced colorectal cancer", "conditions": "treatment of advanced colorectal cancer; background statement; cited from earlier work"}}, "note": "Like-named read-outs stand apart in the source and are kept apart here.", "data": [{"substance": "Interferon-α: interferonα (RoferonA, Roche Labs) 500 u/ml", "values": [{"measurement": "Change (of 5-FU IC50)", "setting": "[1]", "result": 1.8}, {"measurement": "Cloning Efficiency (% of control)", "setting": "[1]; 5-FU 0, IFN 500 u/ml, 5-ETH or 5-PRO 150 μM", "result": 95, "unit": "%"}, {"measurement": "Cloning Efficiency (% of control)", "setting": "[1]; 5-FU 0.25 μM, alone (CONT) or with IFN 500 u/ml, 5-ETH or 5-PRO 150 μM", "result": 97, "unit": "%"}, {"measurement": "Cloning Efficiency (% of control)", "setting": "[1]; 5-FU 0.50 μM, alone (CONT) or with IFN 500 u/ml, 5-ETH or 5-PRO 150 μM", "result": 83, "unit": "%"}, {"measurement": "Cloning Efficiency (% of control)", "setting": "[1]; 5-FU 1.0 μM, alone (CONT) or with IFN 500 u/ml, 5-ETH or 5-PRO 150 μM", "result": 56, "unit": "%"}, {"measurement": "Cloning Efficiency (% of control)", "setting": "[1]; 5-FU 1.5 μM, alone (CONT) or with IFN 500 u/ml, 5-ETH or 5-PRO 150 μM", "result": 18, "unit": "%"}, {"measurement": "Cloning Efficiency (% of control)", "setting": "[1]; 5-FU 2.0 μM, alone (CONT) or with IFN 500 u/ml, 5-PRO 150 μM", "result": 8, "unit": "%"}, {"measurement": "potentiation of the cytotoxicity of 5-fluorouracil in vitro", "setting": "[2]", "result": "potentiates the cytotoxicity of 5-fluorouracil in vitro"}, {"measurement": "in vivo efficacy of the combination with 5-fluorouracil", "setting": "[3]", "result": "in vivo efficacy of this combination has been demonstrated"}]}]}
